Target: Human full-length RanBP3 (residues 1–499; isoform B) (human)
Assay: ITC; 530 µM RanQ69L:GTP titrated into 48 µM full-length RanBP3; 25°C; 300 mM NaCl, 5 mM MgCl2, 10 mM TRIS pH 7.4; single-site binding model; Kd,obs

stoichiometry N: 0.78
Substance: RanQ69L:GTP (from UniProt P62826 1-216) (enzyme)

Source: article PMC3045386
